Test results from patent US9133235B2, “Macrocyclic antagonists of the motilin receptor for treatment of gastrointestinal dysmotility disorders” (Ocera Therapeutics, Inc., priority 2006, dated 2015).

Sequences of proteins named here, by UniProt entry; tags and fusion partners are left off.
UniProt O43193, whole entry: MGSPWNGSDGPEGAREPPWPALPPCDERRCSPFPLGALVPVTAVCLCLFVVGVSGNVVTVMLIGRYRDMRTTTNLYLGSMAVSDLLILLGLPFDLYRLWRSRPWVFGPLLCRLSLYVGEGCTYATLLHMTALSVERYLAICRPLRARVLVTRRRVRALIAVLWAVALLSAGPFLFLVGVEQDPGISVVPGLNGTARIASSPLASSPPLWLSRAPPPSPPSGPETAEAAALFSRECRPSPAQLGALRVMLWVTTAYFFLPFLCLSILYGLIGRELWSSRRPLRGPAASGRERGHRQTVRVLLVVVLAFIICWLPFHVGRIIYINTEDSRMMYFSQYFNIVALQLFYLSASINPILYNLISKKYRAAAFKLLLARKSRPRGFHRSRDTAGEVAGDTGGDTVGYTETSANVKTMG

The molecules below were run against human motilin receptor (Homo sapiens, UniProt O43193) (assay: Competitive radioligand binding assay (motilin receptor)). Settings: [125I]-motilin competition, membranes of CHO cells with human motilin receptor.

Compound	Ki
CC(C)C1NC(=O)C(Cc2ccc(Cl)cc2)NCCOc2ccccc2CCCNC(=O)C(CN(C)C)NC1=O (single isomer, unassigned)	< 100 nM
CC(C)C1NC(=O)C(Cc2ccc(O)cc2)NCCOc2ccccc2CCCNC(=O)C(CNC(=N)N)NC1=O (single isomer, unassigned)	> 1000 nM
CC(C)C1NC(=O)C(Cc2cccc(Cl)c2)NCCOc2ccccc2CCCNC(=O)C(CCC(=N)N)NC1=O (single isomer, unassigned)	< 100 nM
CC(C)C1NC(=O)C(Cc2cccc(Cl)c2)NCCOc2ccccc2CCCNC(=O)C(CN(C)C)NC1=O (single isomer, unassigned)	< 100 nM
CC(C)C1NC(=O)C(Cc2cccc(Cl)c2)NCCOc2ccccc2CCCNC(=O)C(CNC2=NCCN2)NC1=O (single isomer, unassigned)	< 100 nM
CCCC1NC(=O)C(C(C)C)NC(=O)C(Cc2cc(I)c(O)c(I)c2)NCCOc2ccccc2CCCNC1=O (single isomer, unassigned)	> 1000 nM

Same assay, conditions: [125I]-motilin competition, membranes of CHO cells with human motilin receptor; tested form: TFA

Compound	Ki
CC1COc2ccccc2CCCNC(=O)C(CNC(=N)N)NC(=O)C(C(C)C)NC(=O)C(Cc2cccc(Cl)c2)N1 (single isomer, unassigned)	< 1000 nM
